Experimental data as given in patent US9295672B2, “Optically active pyrazolylaminoquinazoline, and pharmaceutical compositions and methods of use thereof” (Ambit Biosciences Corp., priority 2010, dated 2016).

Experiment: Pharmacokinetics of racemic hydrochloride and of R- and S-isomers, Tables 3 and 4 (Example 16)
Details: racemic compound administered IV 1 mg/kg; label = analyte

Cc1cc(Nc2nc(C(O)c3ccc(F)cc3)nc3ccccc23)n[nH]1 (racemic) [Racemate]
Vz_obs: 2.88 L/kg
